Data on 1 compound can be found in PubChem BioAssay AID588765 (NMMLSC, 2011).

The list shows a part of the results, in another mix than the full data. The source made the active and inactive calls.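 The calls were made as follows: active = percent response below a set limit in fluorescence channel 1 and below 50% in channel 8; inactive = the rest.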

The nature of the assay: compound fluorescence in dual-transfected Am2.2 cells, confirmation, artefact control for beta2AR agonist internalization project, cell-based, FAP fluorogen, flow cytometry, cherry pick 1 (AID 588765).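 Also: low percent response here flags compound autofluorescence meaning a false positive.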 As to conditions: fluorescence counterscreen, at 10 µM, active compounds read low. On the technique in general: A flow cytometer gives signals particle by particle.
Regarding `CN(C)C(=O)c1cc([N+](=O)[O-])cc2c1-c1c(cc([N+](=O)[O-])cc1[N+](=O)[O-])C2=O`, the percent response FL1 was inactive: 95.8%.
